Values quoted from earlier work in article PMC9548544, “Population pharmacokinetic model of vancomycin in postoperative neurosurgical patients” (Frontiers in Pharmacology, 2022).

Settings: cited from earlier work

## CN[C@H](CC(C)C)C(=O)N[C@H]1C(=O)N[C@@H](CC(N)=O)C(=O)N[C@H]2C(=O)N[C@H]3C(=O)N[C@H](C(=O)N[C@H](C(=O)O)c4cc(O)cc(O)c4-c4cc3ccc4O)[C@H](O)c3ccc(c(Cl)c3)Oc3cc2cc(c3O[C@@H]2O[C@H](CO)[C@@H](O)[C@H](O)[C@H]2O[C@H]2C[C@](C)(N)[C@H](O)[C@H](C)O2)Oc2ccc(cc2Cl)[C@H]1O [vancomycin, Vancomycin]
Neurosurgical patients, ref Li et al., 2015, Kim et al., 2016, Lin et al., 2017, Ding et al., 2018, Jing et al., 2020, Jalusic et al., 2021
  interindividual variability of CL in other vancomycin models: 21%–61.92%
Neurosurgical patients, ref Marsot et al., 2012, Kim et al., 2016, Lin et al., Li et al., 2017, Jing et al., 2020, Jalusic et al., 2021, 2015, Lin Wu et al., Ding et al., 2018, Chen et al., 2022
  vancomycin clearance in neurosurgical patients, published studies: 1.67 to 2.17 mL/min/kg
Other patient groups, ref Marsot et al., 2012, Kim et al., 2016, Lin et al., Li et al., 2017, Jing et al., 2020, Jalusic et al., 2021, 2015, Lin Wu et al., Ding et al., 2018, Chen et al., 2022
  vancomycin clearance in other patient groups, published studies: 0.517 to 1.43 mL/min/kg
